The values that follow are results of earlier work, collected in patent US20100022659A1, “Methods and Compositions for the Treatment of CNS-Related Conditions” (priority 2004, published 2010).

For the series the following is noted: humans; MAO inhibitors/GAPDHais, Table 2; cited from earlier work.

Consider `C#CCN(C)[C@H](C)Cc1ccccc1` [Deprenyl/Selegiline], for which the “Human PK” value was 1.5 to 8.6 h.
